From publication PMC7072648, “N-(2-Hydroxyphenyl)-1-[3-(2-oxo-2,3-dihydro-1H- benzimidazol-1-yl)propyl]piperidine-4-Carboxamide (D2AAK4), a Multi-Target Ligand of Aminergic GPCRs, as a Potential Antipsychotic” (Biomolecules, 2020)
Read-outs that look alike come from different tables or passages of the source.

Sequences of proteins named here, by UniProt entry; tags and fusion partners are left off. A change or cut given only in a name is not applied to a line headed by its entry.
UniProt P11229: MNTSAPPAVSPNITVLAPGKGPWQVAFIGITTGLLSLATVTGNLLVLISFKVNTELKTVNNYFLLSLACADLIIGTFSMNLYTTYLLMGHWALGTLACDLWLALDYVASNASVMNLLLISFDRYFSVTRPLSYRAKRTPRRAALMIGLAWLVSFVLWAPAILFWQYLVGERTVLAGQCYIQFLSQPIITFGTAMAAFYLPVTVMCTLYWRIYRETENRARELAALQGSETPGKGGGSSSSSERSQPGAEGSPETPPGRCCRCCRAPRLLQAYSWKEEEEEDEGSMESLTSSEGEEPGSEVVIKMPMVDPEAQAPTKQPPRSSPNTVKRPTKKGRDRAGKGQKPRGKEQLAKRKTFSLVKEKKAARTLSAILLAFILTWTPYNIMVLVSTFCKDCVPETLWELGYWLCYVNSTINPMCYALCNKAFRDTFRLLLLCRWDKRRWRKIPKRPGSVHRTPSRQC

Target: human M1 receptor (Homo sapiens, UniProt P11229)
Assay: Radioligand binding assay at human M1 receptor
Details: internal control

Question: Which results are given for CC(C)[N+]1(C)[C@@H]2CC[C@H]1C[C@@H](OC(=O)C(CO)c1ccccc1)C2 (some centres unmarked) [ipratropium]?
Answer: Ki (mean ± SEM, n = 3, read-out: pKi (M1) (converted)): 0.537 nM; Ki (read-out: average Ki (M1)): 0.53 nM
